According to ChEMBL document CHEMBL5046301, “pH-Responsive Antimicrobial Peptide with Selective Killing Activity for Bacterial Abscess Therapy” (J Med Chem, 2022):

Assays:
[1] = tested on: Staphylococcus epidermidis; assay: Antibacterial activity against Staphylococcus epidermidis ATCC 12228 assessed as inhibition of bacterial growth at pH 6.5 incubated for 24 hrs by NCCLS protocol based method; assay type: functional
Staphylococcus aureus [2] = assay: Antibacterial activity against methicillin-resistant Staphylococcus aureus ATCC 43300 assessed as inhibition of bacterial growth at pH 7.4 incubated for 24 hrs by NCCLS protocol based method; assay type: functional
Salmonella typhimurium [3] = assay: Antibacterial activity against Salmonella enterica subsp. enterica serovar Typhimurium C77-31 assessed as inhibition of bacterial growth at pH 7.4 incubated for 24 hrs by NCCLS protocol based method; assay type: functional
Salmonella typhimurium [4] = assay: Antibacterial activity against Salmonella typhimurium ATCC 14028 assessed as inhibition of bacterial growth at pH 7.4 incubated for 24 hrs by NCCLS protocol based method; assay type: functional, Salmonella enterica subsp. enterica serovar Typhimurium; details: Salmonella enterica
Escherichia coli [5] = assay: Antibacterial activity against Escherichia coli ATCC 25922 assessed as inhibition of bacterial growth at pH 7.4 incubated for 24 hrs by NCCLS protocol based method; assay type: functional
Pseudomonas aeruginosa [6] = assay: Antibacterial activity against Pseudomonas aeruginosa ATCC 27853 assessed as inhibition of bacterial growth at pH 7.4 incubated for 24 hrs by NCCLS protocol based method; assay type: functional
Staphylococcus aureus [7] = assay: Antibacterial activity against Staphylococcus aureus ATCC 29213 assessed as inhibition of bacterial growth at pH 7.4 incubated for 24 hrs by NCCLS protocol based method; assay type: functional
[8] = tested on: Staphylococcus epidermidis; assay: Antibacterial activity against Staphylococcus epidermidis ATCC 12228 assessed as inhibition of bacterial growth at pH 7.4 incubated for 24 hrs by NCCLS protocol based method; assay type: functional
Staphylococcus aureus [9] = assay: Antibacterial activity against Staphylococcus aureus ATCC 25923 assessed as inhibition of bacterial growth at pH 7.4 incubated for 24 hrs by NCCLS protocol based method; assay type: functional
Salmonella typhimurium [10] = assay: Antibacterial activity against Salmonella enterica subsp. enterica serovar Typhimurium C77-31 assessed as inhibition of bacterial growth at pH 6.5 incubated for 24 hrs by NCCLS protocol based method; assay type: functional
Salmonella typhimurium [11] = assay: Antibacterial activity against Salmonella typhimurium ATCC 14028 assessed as inhibition of bacterial growth at pH 6.5 incubated for 24 hrs by NCCLS protocol based method; assay type: functional, Salmonella enterica subsp. enterica serovar Typhimurium; details: Salmonella enterica
Escherichia coli [12] = assay: Antibacterial activity against Escherichia coli ATCC 25922 assessed as inhibition of bacterial growth at pH 6.5 incubated for 24 hrs by NCCLS protocol based method; assay type: functional
Pseudomonas aeruginosa [13] = assay: Antibacterial activity against Pseudomonas aeruginosa ATCC 27853 assessed as inhibition of bacterial growth at pH 6.5 incubated for 24 hrs by NCCLS protocol based method; assay type: functional
Staphylococcus aureus [14] = assay: Antibacterial activity against Staphylococcus aureus ATCC 29213 assessed as inhibition of bacterial growth at pH 6.5 incubated for 24 hrs by NCCLS protocol based method; assay type: functional
Staphylococcus aureus [15] = assay: Antibacterial activity against Staphylococcus aureus ATCC 25923 assessed as inhibition of bacterial growth at pH 6.5 incubated for 24 hrs by NCCLS protocol based method; assay type: functional
Staphylococcus aureus [16] = assay: Antibacterial activity against methicillin-resistant Staphylococcus aureus ATCC 43300 assessed as inhibition of bacterial growth at pH 6.5 incubated for 24 hrs by NCCLS protocol based method; assay type: functional

Measured: MIC

CC[C@H](C)[C@H](NC(=O)CN)C(=O)NCC(=O)N[C@@H](C)C(=O)N[C@H](C(=O)N[C@@H](CC(C)C)C(=O)N[C@@H](CCCCN)C(=O)N[C@H](C(=O)N[C@@H](CC(C)C)C(=O)N[C@H](C(=O)N[C@H](C(=O)NCC(=O)N[C@@H](CC(C)C)C(=O)N1CCC[C@H]1C(=O)N[C@@H](C)C(=O)N[C@@H](CC(C)C)C(=O)N[C@H](C(=O)N[C@@H](CO)C(=O)N[C@@H](Cc1c[nH]c2ccccc12)C(=O)N[C@H](C(=O)N[C@@H](CCCCN)C(=O)N[C@@H](CCCNC(=N)N)C(=O)N[C@@H](CCCCN)C(=O)N[C@@H](CCCNC(=N)N)C(=O)N[C@@H](CCC(N)=O)C(=O)N[C@@H](CCC(N)=O)C(N)=O)[C@@H](C)CC)[C@@H](C)CC)[C@@H](C)O)[C@@H](C)O)C(C)C)C(C)C [MELITTIN]
8 µM: Staphylococcus aureus [2] | Staphylococcus aureus [7] | Staphylococcus aureus [9]
4 µM: Staphylococcus aureus [14] | Staphylococcus aureus [16]
1 µM: [1] | Salmonella typhimurium [11] | Escherichia coli [12]
2 µM: all other assays above
